PMC10354048 (Communications Chemistry, 2023)

The chains behind the UniProt entries cited, without tags or fusion partners. Residues count along the entry.
UniProt P06873, 106-384: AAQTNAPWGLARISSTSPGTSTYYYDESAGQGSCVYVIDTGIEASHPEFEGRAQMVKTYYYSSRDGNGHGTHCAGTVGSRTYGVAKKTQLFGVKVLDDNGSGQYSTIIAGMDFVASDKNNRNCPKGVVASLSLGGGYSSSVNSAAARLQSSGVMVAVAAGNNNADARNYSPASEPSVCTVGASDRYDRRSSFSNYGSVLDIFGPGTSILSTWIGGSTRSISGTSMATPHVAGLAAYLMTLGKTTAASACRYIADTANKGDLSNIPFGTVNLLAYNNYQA

What was measured:
[1] = tested on: trypsin or chymotrypsin; conditions: 1:10 molar ratio bacteriocin:protease, tris buffer 50 mM pH 8.0, 25 °C, 5 and 24 h, HPLC UV 210 nm
[2] = target: proteinase K (Parengyodontium album, UniProt P06873); conditions: 1:10 protease to bacteriocin, 50 mM sodium phosphate pH 7.4, 5 mM CaCl2, 100 mM NaCl, 37 °C, 24 h, HPLC UV 210 nm
[3] = target: T1, trypsin (Bos taurus, UniProt P00760); conditions: enzyme:substrate ratio 10:1, tris buffer 50 mM pH 8.0, 25 °C, 5 and 24 h, HPLC UV 210 nm
T1 construct: gene PRSS1
T1 sequence (P00760 24-246): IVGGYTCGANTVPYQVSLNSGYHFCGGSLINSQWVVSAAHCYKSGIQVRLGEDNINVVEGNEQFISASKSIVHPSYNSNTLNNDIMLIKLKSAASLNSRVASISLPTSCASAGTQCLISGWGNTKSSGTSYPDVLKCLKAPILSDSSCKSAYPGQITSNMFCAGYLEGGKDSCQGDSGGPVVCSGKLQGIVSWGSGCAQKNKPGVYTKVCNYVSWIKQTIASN

[4] = target: chymotrypsin (Bos taurus, UniProt P00766); conditions: enzyme:substrate ratio 1:20 to 10:1, tris buffer 50 mM pH 8.0, 25 °C, 5 and 24 h, HPLC UV 210 nm

| Structure (SMILES) | Proteolytic stability of bacteriocin enantiomers (all protease conditions tested) [1] | Proteolytic stability on incubation with proteinase K [2] | Proteolytic stability on incubation with trypsin [3] | Proteolytic stability on incubation with chymotrypsin [4] |
| --- | --- | --- | --- | --- |
| CC[C@@H](C)[C@@H](NC(=O)[C@@H](Cc1ccc(O)cc1)NC(=O)[C@@H](CCCCN)NC(=O)[C@@H](CC(C)C)NC(=O)[C@@H](Cc1ccccc1)NC(=O)[C@@H](CC(N)=O)NC(=O)[C@@H](CC(C)C)NC(=O)[C@@H](Cc1c[nH]c2ccccc12)NC(=O)[C@@H](CO)NC(=O)[C@H](N)CCSC)C(=O)N[C@H](C)C(=O)N[C@H](CCCCN)C(=O)N[C@H](Cc1ccc(O)cc1)C(=O)NCC(=O)N[C@H](CCCCN)C(=O)N[C@H](CCCCN)C(=O)N[C@H](C)C(=O)N[C@@H](C(=O)N[C@H](CO)C(=O)N[C@H](C)C(=O)N[C@H](C)C(=O)N[C@H](Cc1c[nH]c2ccccc12)C(=O)N[C@H](CCCCN)C(=O)N[C@H](Cc1ccc(O)cc1)C(=O)N[C@H](CCCCN)C(=O)NCC(=O)N[C@H](CCCCN)C(=O)N[C@@H](C(=O)N[C@H](CC(C)C)C(=O)N[C@H](CCC(=O)O)C(=O)N[C@H](Cc1c[nH]c2ccccc12)C(=O)N[C@H](CC(C)C)C(=O)N[C@H](CC(N)=O)C(=O)N[C@@H](C(=O)NCC(=O)N1CCC[C@@H]1C(=O)N[C@@H](C(=O)N[C@H](CC(C)C)C(=O)N[C@H](CCC(=O)O)C(=O)N[C@H](Cc1c[nH]c2ccccc12)C(=O)N[C@@H](C(=O)N[C@H](Cc1c[nH]c2ccccc12)C(=O)N[C@H](CCC(N)=O)C(=O)N[C@H](CCCCN)C(=O)N[C@H](CC(C)C)C(=O)N[C@H](CCCCN)C(=O)N[C@H](CCCCN)C(=O)N[C@@H](C(=O)N[C@H](C)C(=O)NCC(=O)N[C@H](CC(C)C)C(N)=O)[C@H](C)CC)C(C)C)[C@H](C)O)C(C)C)C(C)C)C(C)C [D-AucA, D-aureocin A53 (Met^1-Leu^51)] | remained intact under all conditions tested |  |  |  |
| CC[C@@H](C)[C@@H](NC(=O)CNC(=O)[C@@H](CC(C)C)NC(=O)[C@H](NC(=O)[C@@H](CCC(N)=O)NC(=O)[C@@H](CCCCN)NC(=O)[C@H](NC(=O)[C@@H](CCCCN)NC(=O)[C@@H](CO)NC(=O)[C@H](NC(=O)[C@H](NC(=O)[C@@H](Cc1c[nH]c2ccccc12)NC(=O)[C@@H](CC(=O)O)NC(=O)[C@H](NC(=O)[C@@H](C)NC(=O)[C@@H](CCC(N)=O)NC(=O)CNC(=O)[C@@H](C)NC(=O)[C@@H](CC(N)=O)NC(=O)[C@@H](CC(C)C)NC(=O)[C@@H](Cc1c[nH]c2ccccc12)NC(=O)[C@@H](CC(=O)O)NC(=O)[C@@H](CC(C)C)NC(=O)[C@H](NC(=O)[C@@H](CCCCN)NC(=O)CNC(=O)[C@@H](CCCCN)NC(=O)[C@@H](CC(N)=O)NC(=O)[C@@H](C)NC(=O)[C@@H](Cc1c[nH]c2ccccc12)NC(=O)[C@@H](C)NC(=O)[C@@H](Cc1c[nH]c2ccccc12)NC(=O)[C@@H](CCC(N)=O)NC(=O)[C@H](NC(=O)[C@@H](C)NC(=O)[C@@H](CCCCN)NC(=O)[C@@H](CO)NC(=O)CNC(=O)[C@@H](Cc1ccc(O)cc1)NC(=O)[C@@H](CCCCN)NC(=O)[C@@H](C)NC(=O)[C@@H](CC(C)C)NC(=O)[C@@H](CC(C)C)NC(=O)[C@@H](CCC(N)=O)NC(=O)[C@H](NC(=O)[C@H](NC(=O)[C@@H](CCCCN)NC(=O)[C@@H](CC(C)C)NC(=O)[C@@H](Cc1ccccc1)NC(=O)CNC(=O)[C@@H](C)NC(=O)[C@H](N)CCSC)C(C)C)C(C)C)C(C)C)[C@H](C)CC)[C@H](C)CC)C(C)C)C(C)C)[C@H](C)CC)[C@H](C)CC)C(=O)N[C@H](CCCCN)C(N)=O [D-LnqQ, D-lacticin Q (Met^1-Lys^53)] | resistant to proteolytic degradation |  |  |  |
| CC[C@H](C)[C@H](NC(=O)[C@H](Cc1ccc(O)cc1)NC(=O)[C@H](CCCCN)NC(=O)[C@H](CC(C)C)NC(=O)[C@H](Cc1ccccc1)NC(=O)[C@H](CC(N)=O)NC(=O)[C@H](CC(C)C)NC(=O)[C@H](Cc1c[nH]c2ccccc12)NC(=O)[C@H](CO)NC(=O)[C@@H](N)CCSC)C(=O)N[C@@H](C)C(=O)N[C@@H](CCCCN)C(=O)N[C@@H](Cc1ccc(O)cc1)C(=O)NCC(=O)N[C@@H](CCCCN)C(=O)N[C@@H](CCCCN)C(=O)N[C@@H](C)C(=O)N[C@H](C(=O)N[C@@H](CO)C(=O)N[C@@H](C)C(=O)N[C@@H](C)C(=O)N[C@@H](Cc1c[nH]c2ccccc12)C(=O)N[C@@H](CCCCN)C(=O)N[C@@H](Cc1ccc(O)cc1)C(=O)N[C@@H](CCCCN)C(=O)NCC(=O)N[C@@H](CCCCN)C(=O)N[C@H](C(=O)N[C@@H](CC(C)C)C(=O)N[C@@H](CCC(=O)O)C(=O)N[C@@H](Cc1c[nH]c2ccccc12)C(=O)N[C@@H](CC(C)C)C(=O)N[C@@H](CC(N)=O)C(=O)N[C@H](C(=O)NCC(=O)N1CCC[C@H]1C(=O)N[C@H](C(=O)N[C@@H](CC(C)C)C(=O)N[C@@H](CCC(=O)O)C(=O)N[C@@H](Cc1c[nH]c2ccccc12)C(=O)N[C@H](C(=O)N[C@@H](Cc1c[nH]c2ccccc12)C(=O)N[C@@H](CCC(N)=O)C(=O)N[C@@H](CCCCN)C(=O)N[C@@H](CC(C)C)C(=O)N[C@@H](CCCCN)C(=O)N[C@@H](CCCCN)C(=O)N[C@H](C(=O)N[C@@H](C)C(=O)NCC(=O)N[C@@H](CC(C)C)C(N)=O)[C@@H](C)CC)C(C)C)[C@@H](C)O)C(C)C)C(C)C)C(C)C [L-AucA, L-aureocin A53 (Met^1-Leu^51)] |  | proteolytically resistant | degraded | only caused degradation of L-AucA when the enzyme:substrate ratio increased from 1:20 to 10:1 |
| CC[C@H](C)[C@H](NC(=O)CNC(=O)[C@H](CC(C)C)NC(=O)[C@@H](NC(=O)[C@H](CCC(N)=O)NC(=O)[C@H](CCCCN)NC(=O)[C@@H](NC(=O)[C@H](CCCCN)NC(=O)[C@H](CO)NC(=O)[C@@H](NC(=O)[C@@H](NC(=O)[C@H](Cc1c[nH]c2ccccc12)NC(=O)[C@H](CC(=O)O)NC(=O)[C@@H](NC(=O)[C@H](C)NC(=O)[C@H](CCC(N)=O)NC(=O)CNC(=O)[C@H](C)NC(=O)[C@H](CC(N)=O)NC(=O)[C@H](CC(C)C)NC(=O)[C@H](Cc1c[nH]c2ccccc12)NC(=O)[C@H](CC(=O)O)NC(=O)[C@H](CC(C)C)NC(=O)[C@@H](NC(=O)[C@H](CCCCN)NC(=O)CNC(=O)[C@H](CCCCN)NC(=O)[C@H](CC(N)=O)NC(=O)[C@H](C)NC(=O)[C@H](Cc1c[nH]c2ccccc12)NC(=O)[C@H](C)NC(=O)[C@H](Cc1c[nH]c2ccccc12)NC(=O)[C@H](CCC(N)=O)NC(=O)[C@@H](NC(=O)[C@H](C)NC(=O)[C@H](CCCCN)NC(=O)[C@H](CO)NC(=O)CNC(=O)[C@H](Cc1ccc(O)cc1)NC(=O)[C@H](CCCCN)NC(=O)[C@H](C)NC(=O)[C@H](CC(C)C)NC(=O)[C@H](CC(C)C)NC(=O)[C@H](CCC(N)=O)NC(=O)[C@@H](NC(=O)[C@@H](NC(=O)[C@H](CCCCN)NC(=O)[C@H](CC(C)C)NC(=O)[C@H](Cc1ccccc1)NC(=O)CNC(=O)[C@H](C)NC(=O)[C@@H](N)CCSC)C(C)C)C(C)C)C(C)C)[C@@H](C)CC)[C@@H](C)CC)C(C)C)C(C)C)[C@@H](C)CC)[C@@H](C)CC)C(=O)N[C@@H](CCCCN)C(N)=O [L-LnqQ, L-lacticin Q (Met^1-Lys^53)] | more sensitive to proteolytic degradation |  |  |  |
| CC[C@H](C)[C@H](NC(=O)[C@H](Cc1ccc(O)cc1)NC(=O)[C@H](CCCCN)NC(=O)[C@H](CC(C)C)NC(=O)[C@H](Cc1ccccc1)NC(=O)[C@H](CC(N)=O)NC(=O)[C@H](CC(C)C)NC(=O)[C@H](Cc1c[nH]c2ccccc12)NC(=O)[C@H](CO)NC(=O)[C@@H](N)CCSC)C(=O)N[C@@H](C)C(=O)N[C@@H](CCCCN)C(=O)N[C@@H](Cc1ccc(O)cc1)C(=O)NCC(=O)N[C@@H](CCCCN)C(=O)N[C@@H](CCCCN)C(=O)N[C@@H](C)C(=O)N[C@H](C(=O)N[C@@H](CO)C(=O)N[C@@H](C)C(=O)N[C@@H](C)C(=O)N[C@@H](CC(C)C)C(=O)N[C@@H](CCCCN)C(=O)N[C@@H](Cc1ccc(O)cc1)C(=O)N[C@@H](CCCCN)C(=O)NCC(=O)N[C@@H](CCCCN)C(=O)N[C@H](C(=O)N[C@@H](CC(C)C)C(=O)N[C@@H](CCC(=O)O)C(=O)N[C@@H](Cc1c[nH]c2ccccc12)C(=O)N[C@@H](CC(C)C)C(=O)N[C@@H](CC(N)=O)C(=O)N[C@H](C(=O)NCC(=O)N1CCC[C@H]1C(=O)N[C@H](C(=O)N[C@@H](CC(C)C)C(=O)N[C@@H](CCC(=O)O)C(=O)N[C@@H](Cc1c[nH]c2ccccc12)C(=O)N[C@H](C(=O)N[C@@H](Cc1c[nH]c2ccccc12)C(=O)N[C@@H](CCC(N)=O)C(=O)N[C@@H](CCCCN)C(=O)N[C@@H](CC(C)C)C(=O)N[C@@H](CCCCN)C(=O)N[C@@H](CCCCN)C(=O)N[C@H](C(=O)N[C@@H](C)C(=O)NCC(=O)N[C@@H](CC(C)C)C(N)=O)[C@@H](C)CC)C(C)C)[C@@H](C)O)C(C)C)C(C)C)C(C)C [L-W22L, L-aureocin A53 W22L (Met^1-Leu^51)] |  | fully digested |  |  |
